The source of these data is article PMC5361737, “Potent and Selective KDM5 Inhibitor Stops Cellular Demethylation of H3K4me3 at Transcription Start Sites and Proliferation of MM1S Myeloma Cells” (Cell Chemical Biology, 2017).

Chains of the proteins cited; added tags and fusions are not shown.
UniProt O15054, whole entry: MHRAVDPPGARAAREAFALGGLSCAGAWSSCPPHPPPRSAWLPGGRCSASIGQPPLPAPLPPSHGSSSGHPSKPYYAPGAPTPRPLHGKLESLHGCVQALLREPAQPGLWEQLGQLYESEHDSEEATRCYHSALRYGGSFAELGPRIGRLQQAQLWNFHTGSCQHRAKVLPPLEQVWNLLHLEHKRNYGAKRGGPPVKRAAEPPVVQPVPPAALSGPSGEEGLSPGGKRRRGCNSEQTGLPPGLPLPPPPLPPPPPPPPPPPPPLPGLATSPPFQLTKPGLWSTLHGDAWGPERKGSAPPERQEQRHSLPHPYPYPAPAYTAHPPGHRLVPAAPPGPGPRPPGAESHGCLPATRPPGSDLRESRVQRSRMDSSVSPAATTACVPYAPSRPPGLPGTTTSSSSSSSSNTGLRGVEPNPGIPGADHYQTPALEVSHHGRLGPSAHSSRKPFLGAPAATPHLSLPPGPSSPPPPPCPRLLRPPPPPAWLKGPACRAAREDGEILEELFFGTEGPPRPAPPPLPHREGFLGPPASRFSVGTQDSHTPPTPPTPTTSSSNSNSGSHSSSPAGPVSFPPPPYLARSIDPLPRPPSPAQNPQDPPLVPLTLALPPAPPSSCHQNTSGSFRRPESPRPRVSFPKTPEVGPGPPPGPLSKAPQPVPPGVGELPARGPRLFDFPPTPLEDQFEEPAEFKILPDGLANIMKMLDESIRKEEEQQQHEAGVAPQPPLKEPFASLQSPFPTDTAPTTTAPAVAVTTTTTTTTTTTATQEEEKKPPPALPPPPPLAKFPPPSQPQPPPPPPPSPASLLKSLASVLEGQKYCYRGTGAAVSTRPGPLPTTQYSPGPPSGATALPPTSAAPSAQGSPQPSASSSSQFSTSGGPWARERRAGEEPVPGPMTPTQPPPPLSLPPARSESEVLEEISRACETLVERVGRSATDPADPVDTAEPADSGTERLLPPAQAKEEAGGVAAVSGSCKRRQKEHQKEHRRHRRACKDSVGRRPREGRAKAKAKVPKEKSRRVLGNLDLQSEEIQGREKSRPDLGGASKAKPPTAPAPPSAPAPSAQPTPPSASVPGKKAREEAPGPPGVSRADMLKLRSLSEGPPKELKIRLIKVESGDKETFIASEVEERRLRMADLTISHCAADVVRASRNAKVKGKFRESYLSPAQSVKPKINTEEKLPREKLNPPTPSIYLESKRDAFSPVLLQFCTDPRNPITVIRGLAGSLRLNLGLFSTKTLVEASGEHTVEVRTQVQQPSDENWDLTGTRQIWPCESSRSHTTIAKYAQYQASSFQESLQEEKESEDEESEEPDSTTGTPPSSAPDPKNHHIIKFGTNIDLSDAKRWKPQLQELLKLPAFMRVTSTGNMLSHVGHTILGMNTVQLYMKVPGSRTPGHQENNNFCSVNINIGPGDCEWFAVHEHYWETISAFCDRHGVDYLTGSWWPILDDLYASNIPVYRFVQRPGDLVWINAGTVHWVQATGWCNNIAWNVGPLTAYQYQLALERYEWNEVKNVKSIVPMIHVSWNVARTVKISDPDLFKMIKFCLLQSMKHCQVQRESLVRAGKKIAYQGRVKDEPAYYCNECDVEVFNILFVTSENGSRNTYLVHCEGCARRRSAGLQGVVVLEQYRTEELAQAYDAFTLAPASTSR

The assay concerns the target KDM6B (Homo sapiens, UniProt O15054). Briefly: 2-Oxoglutarate oxygenase assay panel, AlphaScreen assay.

SMILES strings stand for the structures.

What is called IC50 is the midpoint of a concentration-inhibition curve. Lower therefore signals higher potency.

`O.O=C(O)C(F)(F)F.O=C(O)C(F)(F)F.O=C(O)c1ccnc(CN2CCNCC2)c1` [KDOAM-1] came in with a half-inhibitory concentration (IC50) above 100 µM.
